In patent US20090209606A1 (priority 2004, published 2009):

What was measured:
SU-DHL-1 cells [1] = test: Wash-out experiments: intracellular ATP and adenylate kinase release; type: cell-based; details: 30 to 120 minutes exposure, ATP and adenylate kinase at 48 and 72 hours
SU-DHL-1 cells [2] = test: Western blot / immunoblot of apoptotic proteins; type: cell-based; details: SU-DHL-1, 20 hours

NP(=O)(O)N(CCCl)CCCl
loss of viability after brief exposure and wash-out (SU-DHL-1 cells [1]): minimal loss of viability | expression of total p53 (SU-DHL-1 cells [2]): no change | up-regulation of Ser-15-phosphorylated p53 (SU-DHL-1 cells [2]): minor up-regulation
